This assay deals with wildtype murine PDGF A chain (murine) (UniProt P20033). Briefly: cell-based or functional assay.

The substance “PDGF A dominant negative mutant 1317 (murine preproPDGF A chain with -ArgLysArg- of the proteolytic cleavage site -ArgArgLysArg- changed to -SerAsnGly-) (from UniProt P20033 21-196) (ligand)” registered a PDGF activity in conditioned media of co-transfected COS cells (bioassay on Balb/c-3T3 cells), 3-fold excess of 1317 DNA (fold decrease) of 5; a PDGF activity in conditioned media of co-transfected COS cells (bioassay on Balb/c-3T3 cells), 7-fold excess of 1317 DNA (fold decrease) of 10; a growth of PDGF-A transformed Balb/c 3T3 sublines in PPP-supplemented medium (% suppression) of 70.

These data come from US6475781.
